Reference: US9457003B2, “Phenyl carbamate compound and a composition for preventing or treating a nerve gas-induced disease comprising the same” (dated 2016)

How the values were obtained:
[1] = tested on: maximal electroshock seizure in ICR mice; assay: MES test (anti-excitation activity); conditions: po
[2] = tested on: lithium-pilocarpine induced status epilepticus in Sprague-Dawley rats; assay: Lithium-pilocarpine induced status epilepticus (SE) model, intervention; conditions: rat/iv, time = 0 min after the first motor seizure; for Protection % (Intervention activity): injection amount 46 mg/kg
[3] = tested on: lithium-pilocarpine induced seizure in Sprague-Dawley rats; assay: Lithium-pilocarpine model for prevention study; conditions: rat, ip; for Protection %: compared to the vehicle only; for ED50 Prevention: at peak time, protection = absence of seizure grade 4-5 over 90 min

Structure (SMILES) | Protection % ([1]; injection amount 200 mg/kg) | Protection % (Intervention activity) [2] | other results
CCCC[C@@H](OC(N)=O)[C@H](O)c1ccccc1Cl | 200 ^a(75%) |  | 
CC(C)NC(=O)OC(C)C(O)c1ccccc1Cl (racemic) | 200 ^a(25%) | ^a46 (100%) | 
CC[C@H](OC(N)=O)[C@@H](O)c1c(Cl)cccc1Cl |  | ^a46 (100%) | 
CCCNC(=O)O[C@H](C)[C@H](O)c1ccccc1Cl | 200 ^a(25%) | ^a46 (100%) | 
CC[C@H](OC(N)=O)[C@@H](O)c1ccccc1Cl |  | ^a46 (100%) | Protection % ([3]; injection amount 60 mg/kg): ^a60 (100%)
CC(OC(N)=O)C(O)c1ccccc1Cl (racemic) |  | ^a46 (83.3%) | ED50 Prevention [3]: 31.7 mg/kg
C[C@H](OC(N)=O)[C@@H](O)c1ccccc1I |  | ^a46 (100%) | ED50 Prevention [3]: 15.3 mg/kg; Protection % ([1]; injection amount 50 mg/kg): 50 ^a(100%)
CCCC[C@H](OC(N)=O)[C@@H](O)c1ccccc1Cl |  |  | Protection % ([1]; injection amount 100 mg/kg): 100 ^a(75%)
C[C@H](OC(N)=O)[C@@H](O)c1ccccc1Cl |  |  | ED50 Prevention [3]: 18.0 mg/kg; MES test ED50 [1]: 13.0 mg/kg; ED50 Intervention [2]: 22.6 mg/kg
CCCC[C@H](OC(N)=O)[C@@H](O)c1c(Cl)cccc1Cl |  | ^a46 (83.3%) | Protection % ([1]; injection amount 100 mg/kg): 100 ^a(75%)
CC(C)[C@H](OC(N)=O)[C@@H](O)c1ccccc1Cl |  | ^a46 (66.7%) | Protection % ([3]; injection amount 60 mg/kg): ^a60 (83.3%)
C[C@H](OC(=O)NC1CC1)[C@@H](O)c1ccccc1Cl | 200 ^a(100%) | ^a46 (66.7%) | 
CCCNC(=O)O[C@@H](C)[C@@H](O)c1ccccc1Cl | 200 ^a(25%) | ^a46 (100%) | 
CCCNC(=O)OC(C)C(O)c1ccccc1Cl (racemic) | 200 ^a(25%) | ^a46 (83.3%) | Protection % ([3]; injection amount 73.6 mg/kg): ^a73.6 (50%)
CCCC[C@H](OC(N)=O)[C@@H](O)c1ccc(Cl)cc1Cl |  | ^a46 (16.7%) | Protection % ([1]; injection amount 100 mg/kg): 100 ^a(25%)
CCC(OC(N)=O)C(O)c1ccccc1Cl (racemic) |  | ^a46 (50%) | Protection % ([3]; injection amount 60 mg/kg): ^a60 (83.3%); Protection % ([1]; injection amount 100 mg/kg): 100 ^a(100%)

Structure (SMILES) | Protection % ([1]; injection amount 200 mg/kg) | Protection % (Intervention activity) [2] | other results
C[C@H](OC(N)=O)[C@H](O)c1ccccc1Cl |  | ^a46 (66.7%) | 
CCCCC(OC(N)=O)C(O)c1ccccc1Cl (racemic) | 200 ^a(100%) |  | 
C[C@@H](OC(N)=O)[C@H](O)c1ccc(Cl)cc1Cl |  | ^a46 (33.3%) | 
C[C@@H](OC(N)=O)[C@@H](O)c1ccccc1Cl |  | ^a46 (100%) | Protection % ([3]; injection amount 60 mg/kg): ^a60 (50%)
C[C@@H](OC(=O)NC1CC1)[C@H](O)c1ccccc1Cl | 200 ^a(25%) | ^a46 (100%) | Protection % ([3]; injection amount 60 mg/kg): ^a60 (100%)
C[C@H](OC(N)=O)[C@@H](O)c1ccc(Cl)cc1Cl |  | ^a46 (66.7%) | Protection % ([3]; injection amount 73.6 mg/kg): ^a73.6 (100%)^
CC(C)[C@H](OC(N)=O)[C@@H](O)c1c(Cl)cccc1Cl |  | ^a46 (66.7%) | Protection % ([3]; injection amount 60 mg/kg): ^a60 (83.3%)
CNC(=O)O[C@@H](C)[C@@H](O)c1ccccc1Cl |  | ^a46 (100%) | Protection % ([1]; injection amount 100 mg/kg): 100 ^a(75%)
C[C@@H](OC(N)=O)[C@H](O)c1ccccc1Cl |  | ^a46 (50%) | ED50 Prevention [3]: 71.9 mg/kg; MES test ED50 [1]: 51.0 mg/kg
CC(OC(=O)NC1CC1)C(O)c1ccccc1Cl (racemic) | 200 ^a(100%) | ^a46 (100%) | Protection % ([3]; injection amount 60 mg/kg): ^a60 (100%)
C[C@H](OC(N)=O)[C@@H](O)c1c(Cl)cccc1Cl |  | ^a46 (100%) | Protection % ([3]; injection amount 35 mg/kg): ^a35 (100%); MES test ED50 [1]: 25.8 mg/kg
CNC(=O)OC(C)C(O)c1ccccc1Cl (racemic) | 200 ^a(75%) |  | Protection % ([3]; injection amount 60 mg/kg): ^a60 (100%)
CC[C@H](OC(N)=O)[C@@H](O)c1ccccc1I |  | ^a46 (100%) | ED50 Prevention [3]: 28.2 mg/kg; Protection % ([1]; injection amount 100 mg/kg): 100 ^a(100%)
C[C@H](OC(N)=O)[C@@H](O)c1ccccc1F |  | ^a46 (50%) | ED50 Prevention [3]: 49.3 mg/kg; Protection % ([1]; injection amount 50 mg/kg): 50 ^a(100%)
C[C@@H](OC(N)=O)[C@H](O)c1c(Cl)cccc1Cl |  | ^a46 (50%) | Protection % ([3]; injection amount 60 mg/kg): ^a60 (66.7%)
C[C@H](OC(N)=O)[C@@H](O)c1cccc(Cl)c1Cl |  | ^a46 (50%) | Protection % ([3]; injection amount 73.6 mg/kg): ^a73.6 (100%)^
